Patent publication US11717508B2, “Compounds, compositions, and methods for inhibiting bacterial growth” (priority 2016, dated 2023)
Read-outs that look alike come from different tables or passages of the source.

Tested on: DosRST regulon
Assay type: cell-based

`C[C@@H]1CC[C@H]2[C@@H](C)C(=O)O[C@@H]3O[C@]4(C)CC[C@@H]1[C@]32OO4` [HC101A, artemisinin, reference compound] was tested, and the “WT DMSO/WT HC101A Fold change” value (gene MT0037 (Rv0032 bioF2)) was 0.3268, the “WT DMSO/WT HC101A Fold change” value (gene MT0038 (Rv0033)) was 0.1722 and the “WT DMSO/WT HC101A Fold change” value (gene MT0040 (Rv0035 fadD34)) was 0.3051. The “WT DMSO/WT HC101A Fold change” value (gene MT0055) was 0.4096, the “WT DMSO/WT HC101A Fold change” value (gene MT0062 (Rv0056 rp11)) was 0.4799 and the “WT DMSO/WT HC101A Fold change” value (gene MT0086 (Rv0079)) was 0.4021. The “WT DMSO/WT HC101A Fold change” value (gene MT0105 (Rv0096 PPE)) was 0.3338, the “WT DMSO/WT HC101A Fold change” value (gene MT0106 (Rv0097)) was 0.3195 and the “WT DMSO/WT HC101A Fold change” value (gene MT0107 (Rv0098)) was 0.3181. For the same compound, the “WT DMSO/WT HC101A Fold change” value (gene MT0108 (Rv0099 fadD10)) was 0.4806, the “WT DMSO/WT HC101A Fold change” value (gene MT0117) was 0.4973 and the “WT DMSO/WT HC101A Fold change” value (gene MT0122 (Rv0113 gmhA)) was 0.4892. The “WT DMSO/WT HC101A Fold change” value (gene MT0124) was 0.2581, the “WT DMSO/WT HC101A Fold change” value (gene MT0175 (Rv0166 fadD5)) was 0.2572 and the “WT DMSO/WT HC101A Fold change” value (gene MT0176) was 0.4108. The “WT DMSO/WT HC101A Fold change” value (gene MT0178 (Rv0169 mcel)) was 0.3155, the “WT DMSO/WT HC101A Fold change” value (gene MT0179 (Rv0170)) was 0.2962 and the “WT DMSO/WT HC101A Fold change” value (gene MT0180 (Rv0171)) was 0.3196. The “WT DMSO/WT HC101A Fold change” value (gene MT0181 (Rv0172)) was 0.353, the “WT DMSO/WT HC101A Fold change” value (gene MT0182 (Rv0173 IprK)) was 0.3213 and the “WT DMSO/WT HC101A Fold change” value (gene MT0183 (Rv0174)) was 0.4165. For the same compound, the “WT DMSO/WT HC101A Fold change” value (gene MT0241 (Rv0231 fadE4)) was 0.4159, the “WT DMSO/WT HC101A Fold change” value (gene MT0244 (Rv0233 nrdB)) was 0.3457 and the “WT DMSO/WT HC101A Fold change” value (gene MT0329 (Rv0315)) was 0.3324. The “WT DMSO/WT HC101A Fold change” value (gene MT0417) was 0.4024, the “WT DMSO/WT HC101A Fold change” value (gene MT0423 (Rv0410c pknG)) was 0.2591 and the “WT DMSO/WT HC101A Fold change” value (gene MT0424 (Rv0411c glnH)) was 0.3179. For the same compound, the “WT DMSO/WT HC101A Fold change” value (gene MT0425 (Rv0412c)) was 0.3527, the “WT DMSO/WT HC101A Fold change” value (gene MT0429 (Rv0416)) was 0.3752 and the “WT DMSO/WT HC101A Fold change” value (gene MT0434) was 0.4735. For the same compound, the “WT DMSO/WT HC101A Fold change” value (gene MT0524) was 0.4713, the “WT DMSO/WT HC101A Fold change” value (gene MT0595 (Rv0569)) was 0.1538 and the “WT DMSO/WT HC101A Fold change” value (gene MT0596 (Rv0570 nrdZ)) was 0.04371. The “WT DMSO/WT HC101A Fold change” value (gene MT0597 (Rv0571c)) was 0.2499, the “WT DMSO/WT HC101A Fold change” value (gene MT0599 (Rv0572c)) was 0.07978 and the “WT DMSO/WT HC101A Fold change” value (gene MT0600) was 0.05061. The “WT DMSO/WT HC101A Fold change” value (gene MT0601 (Rv0573c)) was 0.126, the “WT DMSO/WT HC101A Fold change” value (gene MT0602 (Rv0574c)) was 0.08476 and the “WT DMSO/WT HC101A Fold change” value (gene MT0637 (Rv0608)) was 0.4754. The “WT DMSO/WT HC101A Fold change” value (gene MT0735 (Rv0708 rplP)) was 0.4557, the “WT DMSO/WT HC101A Fold change” value (gene MT0736 (Rv0709 rpmC)) was 0.478 and the “WT DMSO/WT HC101A Fold change” value (gene MT0741) was 0.4411. The “WT DMSO/WT HC101A Fold change” value (gene MT0741.1 (Rv0715 rplX)) was 0.4264, the “WT DMSO/WT HC101A Fold change” value (gene MT0742.1 (Rv0717 rpsN)) was 0.4807 and the “WT DMSO/WT HC101A Fold change” value (gene MT0747 (Rv0722 rpmD)) was 0.3809. The “WT DMSO/WT HC101A Fold change” value (gene MT0845 (Rv0823c)) was 0.451, the “log2 Fold change” value (gene MT0845 (Rv0823c)) was −1.149 and the “WT DMSO/WT HC101A Fold change” value (gene MT0846 (Rv0824c desA1)) was 0.316. The “WT DMSO/WT HC101A Fold change” value (gene MT0877 (Rv0854)) was 0.4775, the “WT DMSO/WT HC101A Fold change” value (gene MT0898) was 0.1015 and the “WT DMSO/WT HC101A Fold change” value (gene MT0908 (Rv0885)) was 0.2626. The “WT DMSO/WT HC101A Fold change” value (gene MT0909 (Rv0886 fprB)) was 0.3541, the “WT DMSO/WT HC101A Fold change” value (gene MT0911 (Rv0888)) was 0.1946 and the “WT DMSO/WT HC101A Fold change” value (gene MT1002 (Rv0974c accD2)) was 0.2898. For the same compound, the “WT DMSO/WT HC101A Fold change” value (gene MT1019 (Rv0990c)) was 0.445, the “WT DMSO/WT HC101A Fold change” value (gene MT1020) was 0.387 and the “WT DMSO/WT HC101A Fold change” value (gene MT1056 (Rv1037c)) was 0.385. The “WT DMSO/WT HC101A Fold change” value (gene MT1095 (Rv1065)) was 0.4439, the “WT DMSO/WT HC101A Fold change” value (gene MT1106 (Rv1076 lipU)) was 0.4933 and the “WT DMSO/WT HC101A Fold change” value (gene MT1126 (Rv1094 dosA2)) was 0.3974. The “WT DMSO/WT HC101A Fold change” value (gene MT1214 (Rv1177 fdxC)) was 0.4072, the “WT DMSO/WT HC101A Fold change” value (gene MT1233 (Rv1195 PE)) was 0.2078 and the “WT DMSO/WT HC101A Fold change” value (gene MT1234 (Rv1196 PPE)) was 0.2727. For the same compound, the “WT DMSO/WT HC101A Fold change” value (gene MT1235) was 0.3284, the “WT DMSO/WT HC101A Fold change” value (gene MT1236) was 0.2469 and the “WT DMSO/WT HC101A Fold change” value (gene MT1314 (Rv1277)) was 0.4624. For the same compound, the “WT DMSO/WT HC101A Fold change” value (gene MT1322 (Rv1284)) was 0.2486, the “WT DMSO/WT HC101A Fold change” value (gene MT1385) was 0.4002 and the “WT DMSO/WT HC101A Fold change” value (gene MT1414.1) was 0.4164. The “WT DMSO/WT HC101A Fold change” value (gene MT1430 (Rv1386 PE)) was 0.4838 and the “WT DMSO/WT HC101A Fold change” value (gene MT1431 (Rv1387 PPE)) was 0.3915.
